The values that follow come from US8937058B2, “17-hydroxy-19-nor-21-carboxylic acid-steroid γ-lactone derivative, use thereof, and medicament containing the derivative” (priority 2007, dated 2015).

Protein sequences, listed by entry. Tags and fused reporters are not part of them. Residues count along the entry.
UniProt P06401, 679-913: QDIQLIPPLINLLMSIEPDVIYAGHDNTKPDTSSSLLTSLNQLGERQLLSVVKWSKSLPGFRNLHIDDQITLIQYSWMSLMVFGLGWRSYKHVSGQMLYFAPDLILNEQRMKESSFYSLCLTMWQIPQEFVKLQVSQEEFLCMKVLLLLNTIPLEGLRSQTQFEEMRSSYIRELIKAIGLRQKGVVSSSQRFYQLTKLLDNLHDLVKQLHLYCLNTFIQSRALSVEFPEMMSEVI
UniProt P06401, whole entry, species assumed: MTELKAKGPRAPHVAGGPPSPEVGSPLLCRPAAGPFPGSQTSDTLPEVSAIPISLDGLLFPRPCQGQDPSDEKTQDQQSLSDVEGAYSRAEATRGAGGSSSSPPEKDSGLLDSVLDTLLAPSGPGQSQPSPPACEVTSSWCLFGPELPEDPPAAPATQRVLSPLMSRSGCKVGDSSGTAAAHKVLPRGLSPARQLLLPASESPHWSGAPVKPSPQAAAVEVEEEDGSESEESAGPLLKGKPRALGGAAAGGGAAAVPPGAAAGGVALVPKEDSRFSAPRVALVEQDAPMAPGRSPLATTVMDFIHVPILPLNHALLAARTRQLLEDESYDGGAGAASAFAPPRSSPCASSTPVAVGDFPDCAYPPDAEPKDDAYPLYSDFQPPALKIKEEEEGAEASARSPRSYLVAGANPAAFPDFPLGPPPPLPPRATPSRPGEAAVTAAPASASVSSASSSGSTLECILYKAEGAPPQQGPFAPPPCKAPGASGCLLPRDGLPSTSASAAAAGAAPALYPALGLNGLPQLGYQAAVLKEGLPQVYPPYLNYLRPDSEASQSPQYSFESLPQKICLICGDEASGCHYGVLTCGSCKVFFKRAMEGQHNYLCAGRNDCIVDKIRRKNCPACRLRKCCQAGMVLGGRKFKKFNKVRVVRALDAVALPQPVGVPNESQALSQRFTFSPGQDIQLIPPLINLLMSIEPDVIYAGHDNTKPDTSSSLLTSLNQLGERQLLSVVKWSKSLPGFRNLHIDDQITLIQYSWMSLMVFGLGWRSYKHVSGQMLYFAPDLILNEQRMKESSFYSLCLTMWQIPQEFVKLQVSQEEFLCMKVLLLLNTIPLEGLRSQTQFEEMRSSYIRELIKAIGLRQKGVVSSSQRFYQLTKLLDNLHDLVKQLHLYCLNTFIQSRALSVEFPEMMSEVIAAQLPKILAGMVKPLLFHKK
UniProt P10275, whole entry, species assumed: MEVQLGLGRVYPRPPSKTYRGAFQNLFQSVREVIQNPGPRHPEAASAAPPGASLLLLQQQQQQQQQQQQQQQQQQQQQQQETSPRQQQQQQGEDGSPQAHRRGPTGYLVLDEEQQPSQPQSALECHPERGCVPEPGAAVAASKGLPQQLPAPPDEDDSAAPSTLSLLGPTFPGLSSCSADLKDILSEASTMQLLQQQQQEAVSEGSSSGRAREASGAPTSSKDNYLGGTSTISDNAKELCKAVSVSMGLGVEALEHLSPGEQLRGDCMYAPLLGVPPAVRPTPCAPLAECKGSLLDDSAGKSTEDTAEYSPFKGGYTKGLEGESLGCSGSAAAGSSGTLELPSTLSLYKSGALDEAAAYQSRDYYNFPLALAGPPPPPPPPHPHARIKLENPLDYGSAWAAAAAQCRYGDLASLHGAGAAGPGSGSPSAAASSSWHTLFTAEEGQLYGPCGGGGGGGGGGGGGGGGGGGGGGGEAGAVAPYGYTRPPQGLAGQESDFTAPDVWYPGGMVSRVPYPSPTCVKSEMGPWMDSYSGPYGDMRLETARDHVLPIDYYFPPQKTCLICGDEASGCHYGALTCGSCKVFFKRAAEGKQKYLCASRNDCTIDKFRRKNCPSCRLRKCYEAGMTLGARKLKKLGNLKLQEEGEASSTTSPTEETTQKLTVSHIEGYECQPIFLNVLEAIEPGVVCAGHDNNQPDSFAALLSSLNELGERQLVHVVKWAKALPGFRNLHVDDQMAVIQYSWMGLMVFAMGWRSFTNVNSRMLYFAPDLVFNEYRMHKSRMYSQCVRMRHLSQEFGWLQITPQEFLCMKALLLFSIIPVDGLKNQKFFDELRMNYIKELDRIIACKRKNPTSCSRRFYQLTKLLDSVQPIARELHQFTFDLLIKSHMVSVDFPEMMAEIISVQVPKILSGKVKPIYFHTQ

Assay [1] addresses fusion protein from the PR-ligand-binding domain and a Gal4-transactivation domain (Homo sapiens (Human), UniProt P06401). Description: cell-based. As to conditions: for Progesterone receptor Agonism efficacy: in-vitro transactivation, CHO K1 reporter cells. As for the experimental part:
4. Determination of Progestational Action by Means of Transactivation Tests:
The test compounds were added eight hours later, and the cells were incubated with the compounds for 16 hours. The tests were carried out in triplicate. At the end of incubation the medium containing the effector was removed and replaced with lysis buffer. After luciferase assay substrate (Promega, #E1501) had been added, the 96-well plates were then put in a microplate luminometer (Pherastar, BMG Labtech), and the luminescence was measured. The IC50 values were evaluated using software for calculating dose-effect relations.

Another assay addresses progesterone receptor (Homo sapiens (Human), UniProt P06401). As to conditions: for CF PR/CF MR: ratio of the competition factors CF(PR) and CF(MR).
Assay [2] addresses T1, androgen receptor (Homo sapiens (Human), UniProt P10275). The protocol: 3. Androgen Receptor Binding Test:
The test was carried out as in 1., with the following modifications: cytosol from androgen receptor-expressing insect cells (Hi5) was used, and the reference substance was ^3H-testosterone.

Assay [3] addresses T1, androgen receptor. Kind of assay: cell-based. The protocol:
6. Determination of Androgenic/Antiandrogenic Action by Means of Transactivation Tests:
The androgenic/antiandrogenic action of the test substances was determined as for the transactivation tests described above.
The following modifications were made: In this case reporter cell lines were used (PC3 cells) that express the androgen receptor, and a reporter construct that contains luciferase under the control of a steroid hormone-responsive promoter.
For determination of the antiandrogenic efficacy, 0.05 nM R1881 was added to the cells, in order to achieve almost maximum stimulation of the reporter gene.

pEC50, pIC50: −log10 of the molar value. Like-named read-outs stand apart in the source and are kept apart here.

One may read the pEC50 as −log10 of the EC50, conventionally taken in molar units. The low end stands for a large EC50, the high end for a small EC50. For the compound `C[C@]12CC[C@H]3[C@@H](CC4(CC4)C4=CC(=O)CC[C@@H]43)[C@@H]1CC[C@@]21C=CC(=O)O1` [Example 18, 6,6-(1,2-Ethanediyl)-17β-hydroxy-19-nor-17α-pregna-4,20(Z)-dien-3-one-21-carboxylic acid γ-lactone], in assay [1], the pEC50 was 7.35 and the “Progesterone receptor Agonism efficacy” value is given as 127.0%.

In general, pIC50 refers to the negative decadic logarithm of the IC50, by convention in mol/L. `C[C@@H]1CC2=CC(=O)CC[C@@H]2[C@H]2CC[C@@]3(C)[C@@H](CC[C@@]34C=CC(=O)O4)[C@@H]21` (stereo in doubt) [Example 2A, 17β-Hydroxy-7α-methyl-19-nor-17α-pregna-4,20(Z)-dien-3-one-21-carboxylic acid γ-lactone]: the “CF PR/CF MR” value at progesterone receptor turned out to be 1.10. For the same compound, the pIC50 on androgen receptor [2] (read-out: Androgen receptor IC50, receptor binding, 3H-testosterone displacement) is 6.96. For the same compound, the “Androgen receptor Competition factor” value at androgen receptor [2] (reference substance 3H-testosterone) turned out to be 4.8. On androgen receptor [3], this compound gave a negative logarithm of the EC50 (pEC50) of 7.80 and a pIC50 of 6.00. Besides, the “Androgen receptor Agonism efficacy” value at androgen receptor [3] (in-vitro transactivation, PC3 cells) is given as 64.09%. The “Androgen receptor Antagonism efficacy” value at androgen receptor [3] (in-vitro transactivation, PC3 cells, 0.05 nM R1881) was found to be 5%.

As to `CC[C@]12CC[C@H]3[C@@H](CC4(CC4)C4=CC(=O)CC[C@@H]43)[C@@H]1CC[C@@]21C=CC(=O)O1` [Example 16, 6,6-(1,2-Ethanediyl)-17β-hydroxy-18-methyl-19-nor-17α-pregna-4,20(Z)-dien-3-one-21-carboxylic acid γ-lactone], in assay [1], the negative logarithm of the EC50 (pEC50) was 8.01 and the “Progesterone receptor Agonism efficacy” value worked out at 38.4%.

As to `C[C@]12CC[C@H]3[C@@H](C=CC4=CC(=O)CC[C@@H]43)[C@@H]1CC[C@@]21C=CC(=O)O1` (stereo in doubt) [Example 1, 17β-Hydroxy-19-nor-17α-pregna-4,6,20(Z)-trien-3-one-21-carboxylic acid γ-lactone], at progesterone receptor (CF of 1 = affinity of progesterone, CF >1 lower affinity), the “Progesterone receptor (PR) Competition factor” value worked out at 11.41. Further, the “CF PR/CF MR” value on progesterone receptor was 0.35. The pIC50 at progesterone receptor (read-out: Progesterone receptor (PR) IC50, receptor binding, 3H-progesterone displacement) is 6.64.
